Data: patent US5756454

Biological target: collagen-induced platelet aggregation inhibitor isolated from saliva of Triatoma pallidipennis (Triatoma pallidipennis)

Q: For aprotenin (from UniProt P00974), which maximal collagen-induced aggregation with "Superose"-pool preincubated 15 min with protease inhibitors (52% with "Superose"-pool alone, 86% control) (% maximal aggregation) is on record?
A: 48
